Source: US8580321B2, “Method for reducing the effects of chemotherapy using flagellin related polypeptides” (priority 2003, dated 2013)

Tested on: NIH Swiss mice treated with cisplatinum
Experiment: Cisplatinum toxicity (weight loss, viability, behavior) in NIH Swiss mice
Conditions: 2×MTD, majority of mice, by day 10

Question: Which “outcome of mice given cisplatinum 20 mg/kg with PBS” value does the source give for cisplatinum here?
Answer: died or experienced >25% weight loss
